The results in this text go back to patent US7592320B2, “Cancer gene therapy based on translational control of a suicide gene” (priority 2001, dated 2009).

Where “and” joins values, the source holds several entries; their conditions need not be identical. Equal values may be shown once. Read-outs that look alike come from different tables or passages of the source.

For one experiment, the system named is MM3MG. As for the experimental part:
(§1) Each vector was then stably transfected into either MM3MG cells (ATCC No.CRL6376, a normal mouse mammary line) or MM2MT cells (ATCC No. CRL6373, a mouse mammary carcinoma line). Unless otherwise stated, all cell lines were purchased from the American Type Culture Collection (“ATCC”), Manassas, Va. To overexpress eIF4E (referred to as eIF4E-S, for “sense”), the eIF4E cDNA was cloned into KpnI and NotI sites of the pREP7 episomal vector (Invitrogen, Carlsbad, Calif.). To reduce the eIF4E expression (referred to as eIF4E-AS, for “antisense”), an antisense eIF4E construct was subcloned into the pREP7 vector as described in A. De Benedetti et al., “Expression of antisense RNA against initiation factor eIF-4E mRNA in HeLa cells results in lengthened cell division times, diminished translation rates, and reduced levels of both eIF-4E and the P220 component of eIF-4F,” Mol. Cell. Biol., vol. 11, pp. 5435-5445 (1991).
(§2) All transfections were performed with the GenePORTER reagent (Gene Therapy Systems, San Diego, Calif.). Stable cell lines were obtained by selection with G418 for the BK constructs, and Hygromycin B for the pREP7 vectors.

The test system of the next experiment is MM2MT. The protocol:
as §1, §2

Consider `Nc1nc(O)c2ncn(COC(CO)CO)c2n1` [GCV, Ganciclovir], for which the “Selective Index” value was 23.3 in the experiment with MDA-435S; 300 and 600 with MCF7; 667 in the experiment on MM3MG (MM3MG-TK cells); 2.7 with MM3MG (MM3MG-UTK cells); 222 with MM3MG (MM3MG-UTK/4E-AS cells (so in the source)); 1000 in the experiment on MM2MT (MM2MT-TK cells). Further, the “Selective Index” value in the experiment with MM2MT (MM2MT-TK/4E-AS cells) was determined as 633; in the experiment with MM2MT (MM2MT-UTK cells) it was 190; in the experiment on MM2MT (MM2MT-UTK/4E-AS cells), 1.7; in the experiment on MDA-231, 1.5. The “fold higher concentration of GCV to which cells became resistant” value with MM2MT (MM2MT-UTK/4E-AS cells, eIF4E reduced with antisense RNA) turned out to be 370 fold.
